The text below walks through data of patent US20250025411A1, “READILY SOLUBLE AND THERMOSTABLE GLUCAGON FORMULATIONS AND DELIVERY FOR MINI-DOSING AND CLOSED -LOOP PROPHYLACTIC TREATMENT OF HYPOGLYCEMIA” (Massachusetts Institute of Technology, priority 2023, published 2025).

The nature of this data set: High throughput screening of water-soluble solid excipients for glucagon dissolution. The conditions noted are these: pH 7.4. It counts as physicochemical.

Sodium Benzoate: the “Fold change vs. PBS Avg.” value is 1.59 fold and the “Glucagon concentration Avg.” value came to 0.34 mg/mL.

Regarding Sodium Bisulfite, the “Fold change vs. PBS Avg.” value worked out at 0.53 fold and the “Glucagon concentration Avg.” value came to 0.11 mg/mL.

Regarding Sodium Chlorate, the “Fold change vs. PBS Avg.” value stood at 2.19 fold and the “Glucagon concentration Avg.” value was determined as 0.47 mg/mL.

Turning to Sodium Sulfite, the “Fold change vs. PBS Avg.” value is 0.16 fold and the “Glucagon concentration Avg.” value stood at 0.04 mg/mL.

Turning to Sodium Thiosulfate, the “Fold change vs. PBS Avg.” value was 2.80 fold.
